# Reference: PubChem BioAssay (NCI)
# The entries are a selection whose mix differs from that of the whole data set.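 96-well plates, one dose, 48 hours. Percent growth reported; active if below 10.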 Activity calls are given as the source filed them.
# Tests used:
# Test in all cases: NCI-60 one-dose screen, 48 h (100 = growth as untreated, 0 = no growth, -100 = all killed)
# Details in all cases: 10 µM unless noted
# MOLT-4 leukemia = tested on: MOLT-4 leukemia
# SR leukemia = tested on: SR leukemia
# RPMI-8226 leukemia = tested on: RPMI-8226 leukemia
# OVCAR-8 ovarian = tested on: OVCAR-8 ovarian
# OVCAR-5 ovarian = tested on: OVCAR-5 ovarian
# OVCAR-4 ovarian = tested on: OVCAR-4 ovarian
# SK-OV-3 ovarian = tested on: SK-OV-3 ovarian
# IGROV1 ovarian = tested on: IGROV1 ovarian
# OVCAR-3 ovarian = tested on: OVCAR-3 ovarian
# HS 578T breast = tested on: HS 578T breast
# NCI/ADR-RES ovarian = tested on: NCI/ADR-RES ovarian
# T-47D breast = tested on: T-47D breast
# BT-549 breast = tested on: BT-549 breast
# MDA-MB-435 melanoma = tested on: MDA-MB-435 melanoma
# SW-620 colon = tested on: SW-620 colon
# MCF7 breast = tested on: MCF7 breast
# HCT-116 colon = tested on: HCT-116 colon
# KM12 colon = tested on: KM12 colon
# HCC-2998 colon = tested on: HCC-2998 colon
Structure (SMILES),growth (MOLT-4 leukemia),growth (SR leukemia),growth (RPMI-8226 leukemia),growth (OVCAR-8 ovarian),growth (OVCAR-5 ovarian),growth (OVCAR-4 ovarian),growth (SK-OV-3 ovarian),growth (IGROV1 ovarian),growth (OVCAR-3 ovarian),growth (HS 578T breast),growth (NCI/ADR-RES ovarian),growth (T-47D breast),growth (BT-549 breast),growth (MDA-MB-435 melanoma),growth (SW-620 colon),growth (MCF7 breast),growth (HCT-116 colon),growth (KM12 colon),growth (HCC-2998 colon)
CCOC(=O)NC(C)(CCC(C)(NC(=O)OCC)P(=O)(O)Nc1ncccn1)P(=O)(O)Nc1ncccn1 (stereo unspecified),inactive: 108% [100 µM],inactive: 95.9% [100 µM],inactive: 98.2% [100 µM],inactive: 106% [100 µM],inactive: 103% [100 µM],inactive: 104% [100 µM],inactive: 107% [100 µM],inactive: 107% [100 µM],inactive: 116% [100 µM],inactive: 115% [100 µM],inactive: 101% [100 µM],inactive: 107% [100 µM],inactive: 117% [100 µM],inactive: 102% [100 µM],inactive: 106% [100 µM],inactive: 90.9% [100 µM],inactive: 104% [100 µM],inactive: 102% [100 µM],–
Cc1ccccc1C(=O)N(CCCl)CCCl,inactive: 94.1%,inactive: 95.5%,inactive: 97.4%,inactive: 100%,inactive: 101%,inactive: 101%,inactive: 105%,inactive: 101%,inactive: 112%,–,inactive: 105%,inactive: 96.7%,inactive: 108%,inactive: 95.8%,inactive: 108%,inactive: 93.9%,inactive: 105%,inactive: 113%,inactive: 99.5%
O=[As](O)(c1cccs1)c1cccs1,inactive: 108%,inactive: 104%,inactive: 83.2%,inactive: 107%,inactive: 99%,inactive: 96.3%,inactive: 100%,inactive: 58%,inactive: 113%,inactive: 96.5%,inactive: 98.6%,inactive: 90.8%,inactive: 74%,inactive: 102%,inactive: 104%,inactive: 94.9%,inactive: 93.2%,inactive: 115%,–
CCN(CCI)Cc1cccc2ccccc12,inactive: 103%,inactive: 99.3%,inactive: 98.3%,inactive: 99.8%,inactive: 102%,inactive: 108%,inactive: 103%,inactive: 101%,inactive: 107%,inactive: 99.8%,inactive: 98.7%,inactive: 95.9%,–,inactive: 102%,inactive: 98.9%,inactive: 92.7%,inactive: 115%,inactive: 100%,inactive: 107%
O=C(OCCNCCCl)c1ccccc1,inactive: 90.7%,inactive: 90.8%,inactive: 99%,inactive: 120%,inactive: 97.6%,inactive: 104%,inactive: 110%,inactive: 101%,inactive: 109%,–,inactive: 108%,inactive: 98.3%,inactive: 109%,inactive: 98.3%,inactive: 97.6%,inactive: 87.6%,inactive: 106%,inactive: 110%,inactive: 107%
CCN(CCCl)Cc1cccc2ccccc12,inactive: 96.5%,inactive: 98.3%,inactive: 97.2%,inactive: 99.2%,inactive: 101%,inactive: 104%,inactive: 106%,inactive: 113%,inactive: 125%,inactive: 118%,inactive: 114%,inactive: 96.7%,–,inactive: 109%,inactive: 98.4%,inactive: 95.9%,inactive: 103%,inactive: 104%,inactive: 108%
Cn1c(=O)c2[nH]c(N(CCCl)CCCl)nc2n(C)c1=O,inactive: 90.8%,inactive: 91.2%,inactive: 97.3%,inactive: 94.9%,inactive: 103%,inactive: 103%,inactive: 99.7%,inactive: 93.3%,inactive: 106%,–,inactive: 106%,inactive: 91.1%,inactive: 95.3%,inactive: 109%,inactive: 101%,inactive: 96.7%,inactive: 97.1%,inactive: 94.7%,inactive: 98.8%
O=[As](O)(c1ccccc1Br)c1ccccc1Br,inactive: 95%,inactive: 89.3%,inactive: 104%,inactive: 109%,inactive: 103%,inactive: 106%,inactive: 103%,inactive: 113%,inactive: 103%,inactive: 107%,inactive: 107%,inactive: 90.8%,inactive: 102%,inactive: 110%,inactive: 100%,inactive: 103%,inactive: 103%,inactive: 102%,–
C=NNc1ccc([N+](=O)[O-])cc1[N+](=O)[O-],inactive: 79.9%,inactive: 84.5%,inactive: 87%,inactive: 94.8%,inactive: 99.2%,inactive: 103%,inactive: 96.7%,inactive: 86.8%,inactive: 96.5%,inactive: 91.2%,inactive: 90.5%,–,–,inactive: 89.9%,inactive: 97.1%,inactive: 83%,inactive: 90.6%,inactive: 68.9%,inactive: 100%
CCOC(=O)CCNCCSP(=O)(O)O,inactive: 120%,inactive: 116%,inactive: 102%,inactive: 97.9%,inactive: 94.6%,inactive: 110%,inactive: 116%,inactive: 111%,inactive: 103%,inactive: 95.8%,–,inactive: 97.3%,inactive: 101%,inactive: 105%,inactive: 102%,inactive: 96.4%,inactive: 101%,inactive: 98.9%,inactive: 107%
NNc1ccc([N+](=O)[O-])cc1[N+](=O)[O-],inactive: 91.8%,inactive: 76.7%,inactive: 82.1%,inactive: 103%,inactive: 101%,inactive: 115%,inactive: 97.4%,inactive: 100%,inactive: 110%,inactive: 110%,inactive: 105%,inactive: 78.3%,–,inactive: 99.4%,inactive: 99.6%,inactive: 99.2%,inactive: 93.3%,inactive: 96%,inactive: 104%
COP(OC)c1ccc(C)cc1,inactive: 73.9%,inactive: 94.1%,inactive: 97.8%,inactive: 97.9%,inactive: 114%,inactive: 108%,inactive: 115%,inactive: 110%,inactive: 99.6%,inactive: 108%,inactive: 108%,inactive: 118%,inactive: 106%,inactive: 107%,inactive: 93.1%,inactive: 97.6%,inactive: 95.8%,inactive: 95.1%,–
O=P1(N(CCCl)CCCl)OCCCS1 (stereo unspecified),inactive: 94.8%,inactive: 110%,inactive: 104%,inactive: 103%,inactive: 107%,inactive: 100%,inactive: 110%,inactive: 118%,inactive: 112%,inactive: 120%,inactive: 111%,inactive: 109%,inactive: 109%,inactive: 107%,inactive: 111%,inactive: 99.1%,inactive: 106%,inactive: 108%,inactive: 99.9%
O=C1OCCN1P(=O)(Cl)N1CCOC1=O,inactive: 92.2%,inactive: 89.7%,inactive: 98.8%,inactive: 93.6%,inactive: 112%,inactive: 110%,inactive: 98.8%,inactive: 110%,inactive: 116%,inactive: 107%,inactive: 98.5%,inactive: 105%,inactive: 110%,inactive: 102%,inactive: 102%,inactive: 94.9%,inactive: 97.9%,inactive: 106%,–
COc1ccc([As](=O)(O)O)cc1,inactive: 101%,inactive: 90.1%,inactive: 102%,inactive: 99.7%,inactive: 103%,inactive: 111%,inactive: 119%,inactive: 111%,inactive: 108%,–,inactive: 112%,inactive: 101%,inactive: 106%,inactive: 113%,inactive: 110%,inactive: 100%,inactive: 102%,–,inactive: 111%
CC(C)=N/N=C(\N)N[N+](=O)[O-],inactive: 114%,inactive: 98.1%,inactive: 89.9%,inactive: 97%,inactive: 106%,inactive: 111%,inactive: 104%,inactive: 110%,inactive: 102%,inactive: 108%,–,inactive: 94.9%,inactive: 119%,inactive: 99.2%,inactive: 110%,inactive: 96.5%,inactive: 105%,inactive: 104%,inactive: 105%
NCCc1ccc(N(CCCl)CCCl)cc1,inactive: 14.7%,active: -17.6%,inactive: 74%,inactive: 42.7%,inactive: 93.9%,inactive: 84.2%,inactive: 75.1%,–,inactive: 94.5%,inactive: 111%,inactive: 73.6%,inactive: 57.2%,inactive: 81%,inactive: 66.2%,inactive: 60.7%,inactive: 36.7%,inactive: 65.1%,inactive: 89.1%,inactive: 88.1%
O=C(CBr)c1ccc([N+](=O)[O-])cc1,inactive: 91.5%,inactive: 96.9%,inactive: 89.9%,inactive: 127%,inactive: 129%,–,inactive: 98.8%,inactive: 108%,inactive: 111%,inactive: 119%,inactive: 110%,inactive: 101%,–,inactive: 103%,inactive: 105%,inactive: 84.8%,inactive: 100%,inactive: 106%,inactive: 107%
NCCNCCCl,inactive: 102%,inactive: 79.1%,inactive: 93.1%,inactive: 94.5%,inactive: 105%,inactive: 93%,inactive: 106%,inactive: 108%,inactive: 107%,–,inactive: 119%,inactive: 111%,inactive: 110%,inactive: 112%,inactive: 95%,inactive: 94.5%,inactive: 103%,inactive: 110%,inactive: 117%
O=P1(N(CCCl)CCCl)OCCC2CCCCN21 (stereo unspecified),inactive: 101%,inactive: 102%,inactive: 91.1%,inactive: 101%,inactive: 116%,–,inactive: 106%,inactive: 107%,inactive: 114%,inactive: 116%,inactive: 109%,inactive: 109%,inactive: 104%,inactive: 111%,inactive: 108%,inactive: 99.1%,inactive: 104%,inactive: 108%,inactive: 102%
O=[N+]([O-])C1C(O)C(O)C([N+](=O)[O-])C(O)C1O (stereo unspecified),inactive: 105%,inactive: 125%,inactive: 106%,inactive: 108%,inactive: 101%,–,inactive: 104%,inactive: 102%,inactive: 111%,inactive: 104%,inactive: 105%,inactive: 99.8%,inactive: 99.9%,inactive: 99.8%,inactive: 106%,inactive: 92.1%,inactive: 104%,inactive: 117%,inactive: 102%
